Bioassay records: PubChem, Broad Institute
Shown are actives, neighbours in structure and some others; about 1.5% of the full set was active somewhere.
FN deposit inh – inhibitors of fibronectin matrix deposition, primary screen, AH1F cells, Alexa488-fibronectin fluorescence, plate reader; AH1F fibroblasts, overnight; inhibition, % at 12.6 µM; 350,000 tested, 0.086% active; AID 743247, 2014;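 active means mean inhibition across replicates of 30% or more, regardless of how many single replicates reach that level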;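 further: positive control wells lacked labelled fibronectin entirely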
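Material: AH1F fibroblast monolayer depositing Alexa488-labelled fibronectin into matrix | Input: 10000 AH1F cells/well | Medium: DMEM plus 2% serum, read in PBS | Reagent: Alexa488-fibronectin, 24 nM final in well | Compound dosing: One dose per compound, pinned | Schedule: 1 h adhesion, overnight exposure | Measured by: Fluorescence at 485 nm excitation, 525 nm emission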
Env fusion inh – inhibitors of HIV-1 Env-driven cell-cell fusion, primary screen, HeLa-JRFL effector, CEM21 target cells, luciferase | inhibition, % at 12.3 µM | 360,000 tested, 1.1% active | AID 651610, 2012;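 active means mean replicate inhibition score of at least 50 and every replicate individually at or above 50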;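 further: 0% = plate neutral controls and 100% = maraviroc near 300 nM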
Yeast UUG start – yeast start codon fidelity modulation; AID 602363; activity score, % at 18.7 µM; S. cerevisiae UUG-firefly luciferase reporter, luminescence/redox ratio; 0.13% of 350,000 active;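 active means replicate mean at a twofold rise or more, about +100% in these data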;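 further: firefly luciferase made from a UUG start codon reports start codon fidelity; reporter light over untreated wells divided by growth signal over untreated wells; some hits fall short of that in this replicate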
miR122 inh – miR-122 Renilla sensor signal increase in Huh7, primary screen, miR-122 inhibitor project, cell-based, single point, plate reader. 340,000 tested, 0.3% active. Huh7 miR-122 Renilla luciferase sensor, 48 h; neutral wells = 0, positive control = 100. activation (reporter increase), % at 12.5 µM. AID 602342, 2012;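 active means mean replicate activation score at least 90 and every replicate individually at or above 90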;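 further: higher luciferase means less miR-122 activity so hits act as miR-122 inhibitors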
PGC1a acetyl inh – inhibitors of PGC1a acetylation signal, primary screen, cell-based, U2OS, AlphaScreen, inhibitor mode. AlphaScreen anti-acetyl-lysine; with virally co-expressed GCN5 acetyltransferase. inhibition, % at 15.6 µM. 350,000 tested, 0.17% active;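 active means every replicate shows inhibition of at least 40%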;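 further: 0% = neutral control wells and 100% = positive control wells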
Cneo AK release – Cryptococcus neoformans cell lysis inducers, primary screen, AK release luminescence, single concentration | C. neoformans lysis, adenylate kinase release luminescence, 4 h; normalised: neutral wells 0, clomiphene wells 100 | lysis activity, % at 15 µM | 360,000 tested, 0.2% active | AID 651654, 2012;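 active means mean lysis activity across replicates of at least 80%, whatever share of replicates individually reach that level; inactive means mean lysis activity below 80%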
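Test system: log-phase Cryptococcus neoformans yeast cells. Input: 5 × 10^6 yeast cells/mL. Medium: fresh YPD growth medium. Doses: single dose. Incubation: static 4 h at 37 °C with compound, 1 h detection. Measured by: luminescent adenylate kinase detection reagent. Read-out: signal increase indicating cell lysis. Benchmarks: Clomiphene.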
* = called active by the depositor; . = no result; ! = repeats disagree; [ ] = remark or other dose.

SMILES | FN deposit inh | Env fusion inh | Yeast UUG start | miR122 inh | PGC1a acetyl inh | Cneo AK release
COc1ccc(Cl)cc1NC(=O)C(C)NC(c1ccccc1)c1ccccc1 (stereo not given) | 7 | 59* | -10 | 1 | 3 | .
COc1ccc(Cl)cc1NC(=O)NC(C)C | -9 | 7 | . | . | . | .
Cc1c(CC(=O)O)c(=O)oc2c(C)c3occ(-c4ccccc4)c3cc12 | -2 | 11 | -16 | -6 | 3 | -2
COc1ccc(NC(=O)C(=O)NCC2CCCN2S(=O)(=O)c2cccs2)cc1 (stereo not given) | 12 | 83* | -6 | 21 | . | 2
C[C@]1(C(=O)NCc2cc(F)cc(C(F)(F)F)c2)C=C[C@@H](Cc2ccccc2)N1C(=O)c1ccccc1 | -8 | 56* | -14 | . | . | 5
CNC(=O)[C@@]1(C)C=C[C@@H](Cc2ccccc2)N1C(=O)OC | 1 | -30 | -4 | 133* | -5 | 1
CCOC(=O)c1ccc(NC(=O)c2sc3nc4n(c(=O)c3c2C)CCC4)cc1 | 2 | 0 | -7 | -12 | 0 | -4
CCOC(=O)c1ccccc1NC(=O)COC(=O)CCCOc1ccccc1 | -4 | -14 | . | . | . | .
c1ccc(CNc2ncnc3ccccc23)cc1 | 4 | 106*! | -14 | 7 | 11 | -2
COc1cc2ncnc(NCc3ccccc3)c2cc1OC | . | . | 4 | 0 | 22 | 1
O=C(Nc1ccc(C(=O)OC2CCCCC2)cc1)c1ccncc1 | -5 | 75* | -9 | . | . | 1
COc1cc(OC)c(OC)cc1CNC(=O)c1ccc(S(=O)(=O)N2CC(C)OC(C)C2)cc1 (stereo not given) | -17 | . | -12 | . | . | 1
O=C(O)CSCC(=O)Nc1cc(C(F)(F)F)ccc1Cl | -5 | -21 | -2 | . | -3 | 0
CC(C)Oc1cc(NC(=O)CSCC(=O)Nc2cccc(C(F)(F)F)c2)c(Cl)cc1Cl | . | 62* | 20 | 2 | -32 | -3
CO[C@H]1O[C@H](CO)[C@@H](OC(=O)Nc2ccccc2)[C@H](OC(=O)Nc2ccc3c(c2)OCO3)[C@@H]1OC(=O)Nc1ccc2c(c1)OCO2 | . | -4[16.7 µM] | 10 | . | -8 | 100*
CCCN(C)C[C@@H]1Oc2ncc(-c3cccc(C#N)c3)cc2C(=O)N([C@@H](C)CO)C[C@@H]1C | -2 | -4[16.7 µM] | 6 | 3[16.7 µM] | -10 | -1
Cc1ccc2[nH]c(C)c(CC(=O)O)c2c1 | . | . | -11 | 7 | 9 | -6
Cc1[nH]c2ccc(C(C)C)cc2c1CC(=O)O | -5 | 11 | -9 | 0 | 76* | -1
O=C(Nc1ccc(OCC(F)(F)C(F)F)c(C(F)(F)F)c1)c1ccc(Cl)cc1 | -7 | 69* | -6 | -5 | -4 | -2
O=C(Nc1ccc(Br)c(C(F)(F)F)c1)c1ccc(C(F)(F)F)cc1 | 40* | 43 | -7 | 1 | -26 | -3
COc1ccc(C(=O)Nc2ccc(OCC(F)(F)C(F)F)c(C(F)(F)F)c2)cc1OC | . | . | -21 | 4 | -21 | -13
O=C(Nc1ccc(Br)c(C(F)(F)F)c1)c1ccccc1 | . | -17 | . | . | . | .
CCN(c1nc(N)c(C(=O)N=C(N)N)nc1Cl)C(C)C | 0 | 69* | -4 | 1 | . | 1
CCOC(=O)c1nnn(-c2ccc(OC)cc2)c1N | 32* | -69 | -17 | -2 | 2 | -1
COC(=O)c1nnn(-c2ccccc2)c1N | -12 | -25 | -21 | 10 | 3 | -3
CC1CCCCN1C(=O)Cn1cc(C(=O)c2ccco2)c2ccccc21 (stereo not given) | . | . | 4 | 45 | -10 | 0
Cc1c(CCOC(=O)c2ccccc2)sc[n+]1CC(=O)c1ccc(Br)cc1 | . | . | -7 | -1 | . | 15
Cc1c(CCOC(=O)CC23CC4CC(CC(C4)C2)C3)sc[n+]1CC(=O)c1ccc(Br)cc1 | -9 | 61* | 3 | 3 | 3 | 7
Cc1c(CCOC(=O)C23CC4CC(CC(C)(C4)C2)C3)sc[n+]1CC(=O)c1ccccc1 | 3 | 82* | -11 | 5 | . | 0
Cc1c(CCOC(=O)c2cc([N+](=O)[O-])cc([N+](=O)[O-])c2)sc[n+]1CC(=O)c1ccccc1 | 4 | 5 | 4 | -5 | . | 0
Cc1c(CCOC(=O)CC23CC4CC(CC(C)(C4)C2)C3)sc[n+]1CC(=O)c1ccccc1 | -13 | 69* | . | . | . | .
COc1ccc(/C=C(\NC(=O)c2ccco2)C(=O)N2CCOCC2)cc1 | 6 | 1 | . | -7 | 8 | .
Cc1nn(C)c(C)c1NC(=O)CSc1nc(C2CC2)nc2c1cnn2-c1ccccc1 | 11 | 57* | -11 | -2 | 3 | -2
Cc1nn(C)c(C)c1NC(=O)CSc1nc(-c2ccccc2Cl)nc2c1cnn2-c1ccccc1 | 18 | -7 | -4 | -8 | -6 | -1
COc1ccc(Cl)cc1CN1C(=O)NC2(CCCCCC2)C1=O | -15 | -4 | 0 | 1 | . | 2
CCC(=NC(C)c1ccccc1)c1c(O)n(C)c(=O)n(C)c1=O (stereo not given) | . | 60* | -7 | 17 | 10 | -8
CC(=O)NC(CC(=O)OCC(=O)c1c(N)n(C)c(=O)n(C)c1=O)c1ccccc1 (stereo not given) | -7 | 13 | . | . | 5 | .
COc1ccc(C(CNC(=O)c2ccc(N3CCCC3=O)cc2)N2CCCC2)cc1 (stereo not given) | -16 | . | -15 | -5 | 10 | 1
COCCn1c(C)cc(C(=O)CSc2nnnn2C2CCCC2)c1C | -3 | 60* | -84 | . | . | -4
COCCn1c(C)cc(C(=O)CSc2nnc(C)s2)c1C | 2 | 63* | -84 | -8 | 8 | -9
COCCn1c(C)cc(C(=O)COC(=O)c2cc3c(s2)CCC3)c1C | -5 | 37 | -15 | 315* | . | -1
COCCn1c(C)cc(C(=O)CSc2n[nH]c(N)n2)c1C | -1 | -29 | -21 | -1 | 0 | -5
CN(CC1COc2ccccc2O1)C(=O)CSc1ncnc2sccc12 (stereo not given) | -5 | . | -4 | -2 | 4 | 2
C[C@H](CO)N1C[C@H](C)[C@H](CN(C)Cc2ccc(Oc3ccccc3)cc2)Oc2ccc(NS(=O)(=O)c3ccc(F)cc3)cc2CC1=O | . | -19[16.7 µM] | 3 | 8[16.7 µM] | -2 | 55
O=C(C1CCCCC1)N1CCN(c2ccnc3cc(Cl)ccc23)CC1 | -3 | 57* | -4 | . | -3 | -5
C[C@H]1CN([C@@H](C)CO)C(=O)Cc2cc(NS(=O)(=O)c3ccc(Cl)cc3)ccc2O[C@@H]1CN(C)C(=O)Nc1ccc(C(F)(F)F)cc1 | -1 | -1[16.7 µM] | -6 | 21[16.7 µM] | -10 | 49

Five neighbouring entries from above, for reference:
SMILES | FN deposit inh | Env fusion inh | Yeast UUG start | miR122 inh | PGC1a acetyl inh | Cneo AK release
CC(=O)NC(CC(=O)OCC(=O)c1c(N)n(C)c(=O)n(C)c1=O)c1ccccc1 (stereo not given) | -7 | 13 | . | . | 5 | .
COc1ccc(C(CNC(=O)c2ccc(N3CCCC3=O)cc2)N2CCCC2)cc1 (stereo not given) | -16 | . | -15 | -5 | 10 | 1
COCCn1c(C)cc(C(=O)CSc2nnnn2C2CCCC2)c1C | -3 | 60* | -84 | . | . | -4
COCCn1c(C)cc(C(=O)CSc2nnc(C)s2)c1C | 2 | 63* | -84 | -8 | 8 | -9
COCCn1c(C)cc(C(=O)COC(=O)c2cc3c(s2)CCC3)c1C | -5 | 37 | -15 | 315* | . | -1
